## Antibody variant affinities, Ab-14 heavy chain, assay B

Data: MIT Lincoln Laboratory AlphaSeq set, Li et al. 2023, doi:10.1038/s41467-023-39022-2, as distributed in FLAb.

Binding partner: SARS-CoV-2 spike HR2 peptide, sequence PDVDLGDISGINAS.

Each scFv is VH, a (GGGGS)3 linker, VL, as in the parent Ab-14, and differs from it in the CDRs of the heavy chain only.
VH: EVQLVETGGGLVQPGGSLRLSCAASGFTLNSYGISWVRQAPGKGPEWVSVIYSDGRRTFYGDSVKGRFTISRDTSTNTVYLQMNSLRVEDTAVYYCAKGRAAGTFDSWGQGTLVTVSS
VL: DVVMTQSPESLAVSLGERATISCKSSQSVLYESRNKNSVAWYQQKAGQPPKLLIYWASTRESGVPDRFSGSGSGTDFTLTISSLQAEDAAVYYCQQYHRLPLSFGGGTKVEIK

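Phage display of a naive human antibody library on the peptide gave the parent. This is the validation round: designs drawn from the data on random variants, tested in the same kind of assay. Group labels follow the data file (En: ensemble of fine-tuned language models; HC: hill climbing; Gen: genetic algorithm; Gibbs: Gibbs sampling; a sequence that several methods proposed may carry one label only). AlphaSeq pools MATa yeast showing the antibodies with MATalpha yeast showing the peptide. Binding brings cells together so that they mate, and sequencing counts the barcode pairs among the diploids. Each replicate has its own calibration line, from reference interactions of the BCL2 family. Each pool was mated in six replicate cultures.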

Each variant is given by its three heavy chain CDRs, as the data file delimits them; those of the parent are GFTLNSYGIS, VIYSDGRRTFYGDSVK, GRAAGTFDS. This list holds designs with more than six substitutions. Values are apparent Kd, the geometric mean of the replicates that gave a signal; lower means stronger binding. "nd" marks a missing value. The strain was present, yet no cells mated with the target were sequenced in any replicate, which points to weak or no binding. In the paper, a design with two or fewer of six values counts as a poor binder. Background: pairings of all heavy chain designs with three empty control strains gave a value in 1% of cases (median 120 nM, 5th percentile 7.0 nM). Values in that range, when seen in few replicates, are hard to tell from nonspecific mating. The parent sequence was in this pool as ten entries: three were never detected, three once, and four in most replicates, with averages from 2.2 nM to 240 nM. The range of this assay differs from that of the first round, and the authors advise against merging the two.

With GFNLDEYGVS, VIYADGIRSTYADAVK, GKHGGAFFV [En_Gibbs] the result was nd (0 of 6 replicates).
With GFDLNEYGIS, VIYADGRRTAYIDSVK, GEIAGTFNV [En_HC] the result was 910 pM (6 of 6 replicates).
With GFDLDEYGIS, VIYADGQRTAYSDSVK, GENAGTFDL [En_Gen] the result was 800 pM (6 of 6 replicates).
With EFDLNEYGVS, VIYADGHRTFYADHVK, GQVAGIFFM [En_Gibbs] the result was nd (0 of 6 replicates).
With GESLDEYGIS, VIYADGQRNAFTSKVK, GHVAGVFNL [En_Gibbs] the result was nd (0 of 6 replicates).
With GFDLNEYGIS, VIYADGLRTAYADDVK, GNVAGTFDT [En_Gen] the result was 250 pM (6 of 6 replicates).
With GFDLEKYGIS, VIYADGQRVEYDSSVK, GENAGYFMI [En_Gibbs] the result was nd (0 of 6 replicates).
With GFDLNEYGIS, VIYADGKRTAYADDVK, GENAGTFDV [En_Gen] the result was 450 pM (6 of 6 replicates).
With GFDLNEYGIS, VIYADGFRTFYTDSVK, GEVAGTFDV [En_HC] the result was 480 pM (6 of 6 replicates).
With GEDLQEYGIS, VIYADGQRQEYSDDVK, GQVAGHFLV [En_Gibbs] the result was 660 nM (1 of 6 replicates).
With GFDLDEYGIS, VIYADGKRTAYSDSVK, GQVAGTFDL [En_Gen] the result was 410 pM (6 of 6 replicates).
With GFDLDEYGIS, VIYADGMRTAYSDSVK, GEVAGTFDQ [En_Gen] the result was 100 pM (6 of 6 replicates).
With GFDLEDYGIS, VIYADGQRTFYADSVK, GNVAGTFDS [En_HC] the result was 330 pM (6 of 6 replicates).
With GFDIESFGIS, VIYADGIRAFYAQKVK, GTIAGTFVD [En_Gibbs] the result was 37 nM (6 of 6 replicates).
With GFDLDEYGIS, VIYADGKRTYYADSVK, GQNAGTFDV [En_Gen] the result was 210 pM (6 of 6 replicates).
With GFDLNEYGIS, VIYADGMRTAYVDSVK, GETAGTFDV [En_Gen] the result was 530 pM (6 of 6 replicates).
With GFDLNEYGIS, VIYADGMRTAYAQDVK, GNVAGTFDV [En_Gen] the result was 260 pM (5 of 6 replicates).
With GFDLDEYGIS, VIYADGMRTAYADSVK, GTVAGTFDL [En_Gen] the result was 390 pM (6 of 6 replicates).
With GFDLDEYGIS, VIYADGVRMAYIDSVK, GNWSGRDMY [En_Gibbs] the result was nd (0 of 6 replicates).
With GFDLNEYGIS, VIYADGMRTAYTDSVK, GNQAGTFDS [En_HC] the result was 4.4 nM (6 of 6 replicates).
With GFDLDEYGIS, VIYADGKRTAYADSVK, GQNAGTFDI [En_Gen] the result was 870 pM (6 of 6 replicates).
With GFDLNEYGIS, VIYADGQRTAYADSVK, GETAGTFDM [En_Gen] the result was 19 nM (3 of 6 replicates).
With GFDLQEMGIS, VIYADGARKSYTNSVK, GVVGGQMDV [En_Gibbs] the result was nd (0 of 6 replicates).
With GFDLGEYGIS, VIYADGRRKGYSDSVK, GRNSINVTD [En_Gibbs] the result was nd (0 of 6 replicates).
With GFNLDEYGIS, VIYADGTRTSYQDNVK, GVTGGHDVT [En_Gibbs] the result was nd (0 of 6 replicates).
With GFDLDEYGIS, VIYADGSRTAYADSVK, GNTAGTFDL [En_Gen] the result was 300 pM (6 of 6 replicates).
With GFEIQEYGIS, VIYADGRRQAYAESFK, GTLGGTFST [En_Gibbs] the result was 3.1 nM (6 of 6 replicates).
With GFDLNEYGIS, VIYADGVRTSYADSVK, GNNAGTFDI [En_Gen] the result was 3.2 nM (6 of 6 replicates).
With GFDLNEYGIS, VIYADGMRTAYSESVK, GENAGTFDV [En_Gen] the result was 530 pM (6 of 6 replicates).
With GFDLDEYGIS, VIYADGMRTFYADNVK, GEVAGTFDV [En_Gen] the result was 910 pM (6 of 6 replicates).
With GFDLNEYGIS, VIYADGKRTAYIDSVK, GEQAGTFDV [En_HC] the result was 1.1 nM (6 of 6 replicates).

From the list, the first 3 with no signal in any replicate:

{"CDR-H1": "GFNLDEYGVS", "CDR-H2": "VIYADGIRSTYADAVK", "CDR-H3": "GKHGGAFFV", "group": "En_Gibbs", "Kd (apparent)": "nd", "detected": "0/6"}
{"CDR-H1": "EFDLNEYGVS", "CDR-H2": "VIYADGHRTFYADHVK", "CDR-H3": "GQVAGIFFM", "group": "En_Gibbs", "Kd (apparent)": "nd", "detected": "0/6"}
{"CDR-H1": "GESLDEYGIS", "CDR-H2": "VIYADGQRNAFTSKVK", "CDR-H3": "GHVAGVFNL", "group": "En_Gibbs", "Kd (apparent)": "nd", "detected": "0/6"}